Values quoted from earlier work in US10753947B2, “Methods for screening voltage-gated proteins” (D.E. Shaw Research, LLC, priority 2012, dated 2020).

Protein sequences, listed by entry. Tags and fused reporters are not part of them.
UniProt P22001, whole entry: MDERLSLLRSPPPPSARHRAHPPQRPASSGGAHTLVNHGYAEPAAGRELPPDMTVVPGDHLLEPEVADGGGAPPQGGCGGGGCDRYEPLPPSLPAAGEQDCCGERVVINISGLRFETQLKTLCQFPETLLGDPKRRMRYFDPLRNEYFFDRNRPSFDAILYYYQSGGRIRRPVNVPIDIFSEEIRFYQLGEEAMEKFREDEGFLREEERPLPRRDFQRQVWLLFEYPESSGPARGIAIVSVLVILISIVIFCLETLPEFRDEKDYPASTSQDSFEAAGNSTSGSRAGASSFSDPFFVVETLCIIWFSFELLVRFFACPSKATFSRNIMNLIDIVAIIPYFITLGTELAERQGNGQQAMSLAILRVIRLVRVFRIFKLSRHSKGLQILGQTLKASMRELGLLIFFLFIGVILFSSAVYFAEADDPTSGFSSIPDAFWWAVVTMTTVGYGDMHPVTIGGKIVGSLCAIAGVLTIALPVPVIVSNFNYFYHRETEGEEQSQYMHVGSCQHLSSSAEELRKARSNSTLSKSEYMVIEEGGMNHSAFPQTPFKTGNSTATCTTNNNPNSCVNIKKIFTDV

Biological target: Kv1.3 (Homo sapiens, UniProt P22001)
Conditions: Table 4; read-out: IC50 Kv1.3; cited from earlier work

Compound: COc1ccc(CCCN2CCC(COC(c3ccccc3)c3ccccc3)CC2)cc1 [UK-78282]
- IC50: 0.28 µM
